Measured values as given in patent US20020155995A1.

Sequences of proteins named here, by UniProt entry; tags and fusion partners are left off. Residues count along the entry.
UniProt Q86VB7, 42-1156: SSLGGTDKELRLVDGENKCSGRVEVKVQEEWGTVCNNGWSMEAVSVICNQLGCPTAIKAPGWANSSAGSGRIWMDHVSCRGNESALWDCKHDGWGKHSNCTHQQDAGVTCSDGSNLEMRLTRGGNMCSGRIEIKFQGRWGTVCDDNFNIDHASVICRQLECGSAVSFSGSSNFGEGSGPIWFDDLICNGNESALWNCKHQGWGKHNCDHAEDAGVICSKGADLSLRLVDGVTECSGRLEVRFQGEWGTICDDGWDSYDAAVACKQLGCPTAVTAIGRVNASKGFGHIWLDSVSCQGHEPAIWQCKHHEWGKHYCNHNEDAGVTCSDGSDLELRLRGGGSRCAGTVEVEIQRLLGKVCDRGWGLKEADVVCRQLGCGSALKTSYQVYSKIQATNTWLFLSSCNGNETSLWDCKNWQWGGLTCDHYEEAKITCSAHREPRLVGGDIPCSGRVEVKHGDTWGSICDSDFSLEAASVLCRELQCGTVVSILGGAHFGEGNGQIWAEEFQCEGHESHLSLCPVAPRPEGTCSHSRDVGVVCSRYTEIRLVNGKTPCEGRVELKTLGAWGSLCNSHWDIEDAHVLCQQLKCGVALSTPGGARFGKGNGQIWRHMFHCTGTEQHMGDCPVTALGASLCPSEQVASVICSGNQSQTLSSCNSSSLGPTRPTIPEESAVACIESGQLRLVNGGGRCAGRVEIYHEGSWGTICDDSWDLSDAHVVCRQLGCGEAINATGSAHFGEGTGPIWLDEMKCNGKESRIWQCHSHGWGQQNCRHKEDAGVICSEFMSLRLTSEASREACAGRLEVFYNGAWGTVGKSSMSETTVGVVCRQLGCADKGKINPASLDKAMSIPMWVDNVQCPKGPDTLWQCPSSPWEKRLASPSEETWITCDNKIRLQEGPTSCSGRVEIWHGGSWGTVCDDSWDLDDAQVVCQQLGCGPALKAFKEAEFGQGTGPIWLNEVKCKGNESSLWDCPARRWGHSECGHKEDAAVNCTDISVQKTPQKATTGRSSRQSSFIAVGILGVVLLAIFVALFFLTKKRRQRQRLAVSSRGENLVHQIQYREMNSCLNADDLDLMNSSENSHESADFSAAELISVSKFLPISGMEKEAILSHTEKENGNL

Assays:
[1] = target: human CD163, ligand-affinity purified from Triton X-100 solubilised human spleen, placenta and liver membranes (human) (UniProt Q86VB7); experiment: apparent Kd from solid phase competition on CD163 in microtiter wells
[2] = target: human CD163, ligand-affinity purified from Triton X-100 solubilised human spleen, placenta and liver membranes (human) (UniProt Q86VB7); experiment: solid phase competition, 125I-Hp(1-1)-Hb on CD163 in microtiter wells

Kd [1]: 2 nM
IC50 [2]: 0.3 µg/mL
Substance: Hp(1-1)-Hb complex (dimeric haptoglobin-haemoglobin complex, Hb form A0) (from UniProt P00738 19-406)
